From ChEMBL document CHEMBL5058646 (2022)

Legend:
[1] = biological target: T1, Telomere zinc finger-associated protein (Homo sapiens) (UniProt P10074); details: SUD4
T1 sequence (whole entry): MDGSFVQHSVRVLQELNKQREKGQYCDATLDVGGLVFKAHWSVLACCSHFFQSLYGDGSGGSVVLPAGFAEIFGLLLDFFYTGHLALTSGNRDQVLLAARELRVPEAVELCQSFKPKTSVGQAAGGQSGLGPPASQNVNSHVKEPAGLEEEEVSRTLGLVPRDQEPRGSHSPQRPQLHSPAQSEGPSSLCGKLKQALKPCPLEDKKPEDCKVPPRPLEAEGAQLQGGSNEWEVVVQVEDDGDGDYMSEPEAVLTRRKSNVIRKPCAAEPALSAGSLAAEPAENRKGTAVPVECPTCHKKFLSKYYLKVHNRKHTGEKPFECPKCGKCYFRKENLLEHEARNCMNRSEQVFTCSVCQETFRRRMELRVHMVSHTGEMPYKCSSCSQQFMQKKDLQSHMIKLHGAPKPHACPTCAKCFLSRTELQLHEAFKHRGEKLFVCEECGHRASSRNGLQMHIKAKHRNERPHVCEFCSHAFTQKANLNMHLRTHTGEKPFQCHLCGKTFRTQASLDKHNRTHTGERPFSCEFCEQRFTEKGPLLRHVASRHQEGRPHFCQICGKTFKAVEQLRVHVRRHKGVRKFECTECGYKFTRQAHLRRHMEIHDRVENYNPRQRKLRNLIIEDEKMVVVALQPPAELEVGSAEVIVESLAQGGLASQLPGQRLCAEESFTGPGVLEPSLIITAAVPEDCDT

[2] = biological target: T2, Zinc finger and BTB domain-containing protein 44 (Homo sapiens) (UniProt Q8NCP5); details: SUD4
T2 sequence (whole entry): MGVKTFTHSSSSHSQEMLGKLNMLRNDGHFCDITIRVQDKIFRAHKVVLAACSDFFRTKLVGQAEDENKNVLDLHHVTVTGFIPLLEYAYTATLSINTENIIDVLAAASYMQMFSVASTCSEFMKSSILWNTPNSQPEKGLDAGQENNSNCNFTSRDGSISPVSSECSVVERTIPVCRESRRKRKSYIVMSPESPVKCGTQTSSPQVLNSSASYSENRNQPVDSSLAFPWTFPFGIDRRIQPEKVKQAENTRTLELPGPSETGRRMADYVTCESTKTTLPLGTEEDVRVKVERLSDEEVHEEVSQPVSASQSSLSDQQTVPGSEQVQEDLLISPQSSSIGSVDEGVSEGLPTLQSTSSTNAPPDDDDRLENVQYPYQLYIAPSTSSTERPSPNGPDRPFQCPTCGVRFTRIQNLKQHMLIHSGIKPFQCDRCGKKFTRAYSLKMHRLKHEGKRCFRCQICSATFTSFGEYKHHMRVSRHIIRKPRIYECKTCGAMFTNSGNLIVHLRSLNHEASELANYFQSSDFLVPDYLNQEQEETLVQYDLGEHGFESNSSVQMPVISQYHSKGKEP

[3] = biological target: T3, Protein archease (Homo sapiens) (UniProt Q8IWT0); details: SUD4
T3 sequence (whole entry): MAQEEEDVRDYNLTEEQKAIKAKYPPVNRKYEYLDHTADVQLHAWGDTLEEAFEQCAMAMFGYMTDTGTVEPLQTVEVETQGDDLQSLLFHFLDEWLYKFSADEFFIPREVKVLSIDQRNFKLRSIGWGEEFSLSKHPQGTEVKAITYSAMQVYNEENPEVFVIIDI

[4] = biological target: B-cell lymphoma 6 protein (Homo sapiens, UniProt P41182); details: SUD4
[5] = biological target: T4, Transcriptional regulator Kaiso (Homo sapiens) (UniProt Q86T24); details: SUD4
T4 sequence (whole entry): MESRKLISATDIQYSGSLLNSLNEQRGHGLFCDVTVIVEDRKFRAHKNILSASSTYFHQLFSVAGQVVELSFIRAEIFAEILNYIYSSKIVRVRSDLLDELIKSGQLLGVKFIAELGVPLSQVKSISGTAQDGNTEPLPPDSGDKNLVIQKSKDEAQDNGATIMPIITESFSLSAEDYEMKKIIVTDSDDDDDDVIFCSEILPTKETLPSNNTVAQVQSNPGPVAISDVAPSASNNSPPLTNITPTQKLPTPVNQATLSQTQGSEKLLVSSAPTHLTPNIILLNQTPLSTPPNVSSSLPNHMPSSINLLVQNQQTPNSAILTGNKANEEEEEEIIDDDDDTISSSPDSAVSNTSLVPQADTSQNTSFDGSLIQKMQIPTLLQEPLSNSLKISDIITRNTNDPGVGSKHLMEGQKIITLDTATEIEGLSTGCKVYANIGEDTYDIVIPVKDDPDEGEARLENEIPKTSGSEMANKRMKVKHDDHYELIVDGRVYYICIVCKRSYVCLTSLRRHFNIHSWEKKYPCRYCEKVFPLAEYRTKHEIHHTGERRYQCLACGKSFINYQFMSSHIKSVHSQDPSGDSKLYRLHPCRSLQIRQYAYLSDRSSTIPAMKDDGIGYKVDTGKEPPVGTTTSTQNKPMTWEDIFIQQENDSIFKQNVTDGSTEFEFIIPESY

[6] = biological target: T5, Zinc finger and BTB domain-containing protein 9 (Homo sapiens) (UniProt Q96C00); details: OCI-Ly1
T5 sequence (whole entry): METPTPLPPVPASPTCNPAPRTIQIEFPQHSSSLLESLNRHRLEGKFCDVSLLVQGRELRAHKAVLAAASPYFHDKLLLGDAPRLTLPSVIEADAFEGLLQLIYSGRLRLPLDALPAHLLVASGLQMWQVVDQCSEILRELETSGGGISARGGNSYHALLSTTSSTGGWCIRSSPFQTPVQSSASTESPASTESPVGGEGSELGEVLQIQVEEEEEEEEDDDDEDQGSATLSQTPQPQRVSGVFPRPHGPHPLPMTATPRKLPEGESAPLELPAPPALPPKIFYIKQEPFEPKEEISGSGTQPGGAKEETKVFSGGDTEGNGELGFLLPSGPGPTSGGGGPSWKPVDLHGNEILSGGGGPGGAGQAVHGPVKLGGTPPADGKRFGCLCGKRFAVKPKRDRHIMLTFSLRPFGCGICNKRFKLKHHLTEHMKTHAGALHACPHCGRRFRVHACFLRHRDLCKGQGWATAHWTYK

[7] = biological target: T2, Zinc finger and BTB domain-containing protein 44 (Homo sapiens); details: OCI-Ly1

SMILES: C[C@@H]1CN(c2ncc(Cl)c(Nc3ccc4c(c3)n(CCC(C)(C)O)c(=O)n4C)n2)C[C@H](C)C1(F)F
- Normalized abundances for DMSO [1]: 1050
- Normalized abundances for compound [1]: 1040
- Normalized abundances for DMSO [2]: 566
- Normalized abundances for compound [2]: 563
- Normalized abundances for DMSO [3]: 1430
- Normalized abundances for compound [3]: 1540
- Normalized abundances for DMSO [4]: 12200
- Normalized abundances for compound [4]: 5550
- Normalized abundances for DMSO [5]: 2180
- Normalized abundances for compound [5]: 2140
- Normalized abundances for DMSO [6]: 40.5
- Normalized abundances for compound [6]: 39.8
- Normalized abundances for DMSO [7]: 9.4
- Normalized abundances for compound [7]: 12.6
